{"sequences": {"note": "Chains of the proteins cited; added tags and fusions are not shown.", "UniProt Q9Y2I7, whole entry S696N/L932S/Q995L/T998S/S1033A/Q1183K": "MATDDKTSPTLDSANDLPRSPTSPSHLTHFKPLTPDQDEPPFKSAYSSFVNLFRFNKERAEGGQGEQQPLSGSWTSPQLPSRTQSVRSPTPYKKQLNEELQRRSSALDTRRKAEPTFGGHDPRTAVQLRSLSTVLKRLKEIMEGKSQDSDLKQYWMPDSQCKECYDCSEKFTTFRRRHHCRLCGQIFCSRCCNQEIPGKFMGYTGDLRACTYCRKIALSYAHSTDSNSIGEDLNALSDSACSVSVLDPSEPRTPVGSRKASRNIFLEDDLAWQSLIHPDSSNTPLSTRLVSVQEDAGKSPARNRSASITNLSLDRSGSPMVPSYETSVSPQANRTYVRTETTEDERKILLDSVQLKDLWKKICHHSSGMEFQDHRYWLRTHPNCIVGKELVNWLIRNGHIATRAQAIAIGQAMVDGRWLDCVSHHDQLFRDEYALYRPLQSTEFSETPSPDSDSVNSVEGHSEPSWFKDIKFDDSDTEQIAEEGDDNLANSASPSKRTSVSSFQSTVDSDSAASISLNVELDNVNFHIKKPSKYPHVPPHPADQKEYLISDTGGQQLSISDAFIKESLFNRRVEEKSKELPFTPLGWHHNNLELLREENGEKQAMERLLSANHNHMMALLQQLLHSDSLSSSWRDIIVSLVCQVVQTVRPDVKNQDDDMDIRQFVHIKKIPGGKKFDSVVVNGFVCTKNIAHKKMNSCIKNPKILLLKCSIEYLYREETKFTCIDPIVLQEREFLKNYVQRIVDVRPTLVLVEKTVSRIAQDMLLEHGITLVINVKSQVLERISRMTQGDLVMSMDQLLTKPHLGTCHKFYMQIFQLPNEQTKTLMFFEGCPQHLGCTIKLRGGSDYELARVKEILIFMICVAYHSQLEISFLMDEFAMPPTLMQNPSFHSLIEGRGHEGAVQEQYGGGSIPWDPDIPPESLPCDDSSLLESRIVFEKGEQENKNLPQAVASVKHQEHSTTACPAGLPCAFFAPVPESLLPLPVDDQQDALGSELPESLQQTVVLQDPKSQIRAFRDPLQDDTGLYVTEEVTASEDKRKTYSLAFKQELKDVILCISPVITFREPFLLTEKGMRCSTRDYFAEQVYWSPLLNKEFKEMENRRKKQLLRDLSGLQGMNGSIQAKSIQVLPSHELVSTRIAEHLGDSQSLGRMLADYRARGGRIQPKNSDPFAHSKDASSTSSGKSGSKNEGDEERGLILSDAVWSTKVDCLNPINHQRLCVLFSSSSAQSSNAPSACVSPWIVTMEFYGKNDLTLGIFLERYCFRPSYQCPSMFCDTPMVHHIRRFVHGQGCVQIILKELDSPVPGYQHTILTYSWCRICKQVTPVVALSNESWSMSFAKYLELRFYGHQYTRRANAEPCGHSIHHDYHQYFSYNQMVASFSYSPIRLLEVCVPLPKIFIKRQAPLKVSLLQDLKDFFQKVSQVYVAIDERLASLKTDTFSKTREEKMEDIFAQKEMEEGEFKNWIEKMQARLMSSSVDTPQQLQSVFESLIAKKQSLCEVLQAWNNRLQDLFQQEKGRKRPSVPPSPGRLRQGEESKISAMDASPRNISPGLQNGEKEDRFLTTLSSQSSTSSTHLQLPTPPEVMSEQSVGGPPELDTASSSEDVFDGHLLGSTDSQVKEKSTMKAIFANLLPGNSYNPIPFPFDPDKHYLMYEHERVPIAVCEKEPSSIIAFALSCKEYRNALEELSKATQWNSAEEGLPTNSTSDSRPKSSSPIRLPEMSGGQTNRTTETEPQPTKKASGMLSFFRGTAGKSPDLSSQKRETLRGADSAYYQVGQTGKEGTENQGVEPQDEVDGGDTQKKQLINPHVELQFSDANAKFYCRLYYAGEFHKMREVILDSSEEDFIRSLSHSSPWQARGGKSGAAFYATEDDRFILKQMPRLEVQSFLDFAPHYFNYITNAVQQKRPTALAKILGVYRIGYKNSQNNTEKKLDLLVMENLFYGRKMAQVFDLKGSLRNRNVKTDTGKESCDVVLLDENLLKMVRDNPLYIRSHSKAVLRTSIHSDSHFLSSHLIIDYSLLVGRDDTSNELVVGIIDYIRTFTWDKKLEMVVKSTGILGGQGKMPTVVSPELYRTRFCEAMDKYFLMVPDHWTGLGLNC"}, "source": "patent US20240208964A1", "about": "“PYRIDOPYRIMIDINES AND METHODS OF THEIR USE” (PYRIDOPYRIMIDINES AND METHODS OF THEIR USE, priority 2020, published 2024)", "biological_target": "full-length human PIKFYVE (GST-PIKFYVE) (Homo sapiens (Human), UniProt Q9Y2I7, L932S/Q1183K/Q995L/S1033A/S696N/T998S)", "assay": "PIKfyve biochemical assay (ADP-Glo Kinase assay, Carna Biosciences)", "conditions": "read-out: hPIKfyve IC50"}
{"smiles": "Brc1cnc2c(N3CCOCC3)nc(-n3ccc(-c4ccccc4)n3)nc2c1", "values": [{"measurement": "IC50", "value": "100 to 1000", "unit": "nM"}]}
